Measurements as given in ChEMBL document CHEMBL1124669, “Quaternary salts of 2-[(hydroxyimino)methyl]imidazole. 2. Preparation and in vitro and in vivo evaluation of 1-(alkoxymethyl)-2-[(hydroxyimino)methyl]-3-methylimida zolium halides for reactivation of organophosphorus-inhibited acetylcholinesterases” (1989).

Key:
[1] = Partition coefficient (logD7.6); details: octanol/water, pH 7.6
[2] = Octanol buffer partition coefficient for 0.1M, at pH 7.6 in phosphate buffer; details: octanol/water

SMILES	logD [1]	logD [2]
Cn1cc[n+](COC(=O)C(C)(C)C)c1/C=N/O.[Cl-]	-1.36	–
CC(C)CCOC[n+]1ccn(C)c1/C=N/O.[Cl-]	–	-1.08
COC[n+]1ccn(C)c1/C=N/O.[Cl-]	-3	–
CCCC(=O)OC[n+]1ccn(C)c1/C=N/O.[Cl-]	-1.53	–
CCOC[n+]1ccn(C)c1/C=N/O.[Cl-]	-2.7	–
CCCC(OC[n+]1ccn(C)c1/C=N/O)C1CCCC1.[Cl-] (configuration not stated)	0.22	–
Cc1n(C)cc[n+]1COC(C)C(C)(C)C.[Cl-] (configuration not stated)	-1.71	–
Cn1c(/C=N/O)[n+](C)c2ccccc21.[Cl-]	-1.13	–
Cn1cc[n+](CCC[n+]2ccn(C)c2/C=N/O)c1/C=N/O	< -3	–
Cn1cc[n+](COC2CCCCC2)c1/C=N/O.[Cl-]	-1.2	–
Cn1cc[n+](COCC2CCCCC2)c1/C=N/O.[Cl-]	-0.12	–
Cn1cc[n+](COC[n+]2ccccc2/C=N/O)c1/C=N/O.[Cl-].[Cl-]	< -3	–
CC(OC[n+]1ccn(C)c1/C=N/O)C1CCCCC1.[Cl-] (configuration not stated)	0.22	–
Cn1cc[n+](COC2CCCCCC2)c1/C=N/O.[Cl-]	-0.56	–
CCC(C)C(C)OC[n+]1ccn(C)c1/C=N/O.[Cl-] (configuration not stated)	-0.76	–
Cn1cc[n+](COCC2CCCc3ccccc32)c1/C=N/O.[Cl-] (configuration not stated)	0.07	–
Cn1cc[n+](COCC(C)(C)C)c1/C=N/O.[Cl-]	-0.91	–
Cn1cc[n+](COC2CCCCCCCCCCC2)c1/C=N/O.[Cl-]	1.48	–
Cn1cc[n+](COC[n+]2ccn(C)c2/C=N/O)c1/C=N/O	< -3	–

SMILES	logD [1]	logD [2]
CCC(OC[n+]1ccn(C)c1/C=N/O)C(C)(C)C.[Cl-] (configuration not stated)	-0.36	–
Cn1cc[n+](COCc2cccc3ccccc23)c1/C=N/O.[Cl-]	-0.36	–
CCCC(CC)OC[n+]1ccn(C)c1/C=N/O.[Cl-] (configuration not stated)	-0.86	–
Cn1cc[n+](COC2CCCC2)c1/C=N/O.[Cl-]	-1.46	–
Cn1cc[n+](COCCCc2ccccc2)c1/C=N/O.[Cl-]	-0.45	–
Cn1cc[n+](COC2CCC2)c1/C=N/O.[Cl-]	-2.1	–
CCCC(C)OC[n+]1ccn(C)c1/C=N/O.[Cl-] (configuration not stated)	-1.12	–
CCC(C)C(=O)OC[n+]1ccn(C)c1/C=N/O.[Cl-] (configuration not stated)	-1.21	–
CCCCCCOC[n+]1ccn(C)c1/C=N/O.[Cl-]	-0.11	–
CC(OC[n+]1ccn(C)c1/C=N/O)C(C)(C)C.[Cl-] (configuration not stated)	-0.68	–
Cn1cc[n+](COC(=O)c2ccc3ccccc3c2)c1/C=N/O.[Cl-]	0.52	–
O/N=C\c1cccc[n+]1COCCOC[n+]1ccccc1/C=N/O.[Cl-].[Cl-]	< -3	–
CC(CC(C)(C)C)OC[n+]1ccn(C)c1/C=N/O.[Cl-] (configuration not stated)	-0.28	–
CCCCCCCCOC[n+]1ccn(C)c1/C=N/O.[Cl-]	0.88	–
CC(C)OC[n+]1ccn(C)c1/C=N/O.[Cl-]	-2.17	–
Cn1cc[n+](CCCC[n+]2ccn(C)c2/C=N/O)c1/C=N/O	< -3	–
Cn1cc[n+](COCc2ccccc2)c1/C=N/O.[Cl-]	-1.3	–
Cn1cc[n+](COC(C)(C)C(C)(C)C)c1/C=N/O.[Cl-]	-0.25	–
